## Ab-14 light chain CDR variants: yeast mating affinities

The measurements come from Li et al. 2023 (doi:10.1038/s41467-023-39022-2) through the FLAb antibody collection.

Antigen: PDVDLGDISGINAS, a 14-residue peptide of the SARS-CoV-2 spike HR2 region.

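The starting antibody came from a phage panning campaign against this peptide. These sequences belong to a second round, designed from the earlier measurements on random variants of the parent. Their group label is 14L_En_Gen (En: ensemble of fine-tuned language models; Gen: genetic algorithm). In AlphaSeq, yeast of one mating type display the scFv and yeast of the other type display the target. The frequency of each diploid, read from paired DNA barcodes, reflects how well the two displayed proteins bind. Scores were corrected for input abundance and mapped to Kd with protein pairs of known affinity run in the same pool. Mating was done six times.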

Parent: Ab-14, a human scFv built as VH, a 15-residue (Gly4Ser)3 linker, VL. Only the CDRs of the light chain vary.
VH: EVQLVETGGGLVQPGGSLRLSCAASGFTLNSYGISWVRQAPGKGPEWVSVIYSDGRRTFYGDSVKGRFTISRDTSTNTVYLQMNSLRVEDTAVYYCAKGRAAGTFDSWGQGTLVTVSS
VL: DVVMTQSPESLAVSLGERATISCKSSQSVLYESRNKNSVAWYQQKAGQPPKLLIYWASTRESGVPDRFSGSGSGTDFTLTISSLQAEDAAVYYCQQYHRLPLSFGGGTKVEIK

The parent's light chain CDRs are KSSQSVLYESRNKNSVA, WASTRES, QQYHRLPLS; each variant's own CDRs replace them letter for letter. Values are log10 of the apparent Kd in nM; lower means stronger binding. "n.d." marks a missing value. The strain was present, yet no cells mated with the target were sequenced in that replicate, which points to weak or no binding. Nonspecific signal, from three strains lacking the peptide, appeared in 4% of pairings of all light chain designs, centred on 2.64 (5% of these signals below 1.59); values are not corrected for it. The control count says in how many pairings with the empty strains this scFv gave a signal, with their mean in brackets.

| # | CDR-L1 | CDR-L2 | CDR-L3 | log10 Kd, replicates | signal with controls |
|---|---|---|---|---|---|
| 1 | MISQLYNMGSFAINSVA | QASQRNA | QQYDRLPLI | 1.35 1.82 1.26 1.19 1.33 1.98 | 3/18 (2.30) |
| 2 | QIGMLMNFESLKINNVA | QMETRVN | QQYDRLPLS | 1.21 0.94 0.79 0.94 1.01 1.38 | 0/18 |
| 3 | NLSGMTAHETVKEKNIA | ERSTREA | QQYNRLPLS | 0.14 -0.09 -0.09 -0.45 -0.39 -0.10 | 1/18 (2.30) |
| 4 | TLSQMSGLEAVKHNSVA | ENSTREN | QQYDRLPLA | n.d. 3.66 2.35 2.82 3.00 n.d. | 3/18 (2.58) |
| 5 | IIDAIMFHGLKNASSIA | QAEERVN | QQYHHLPLT | 2.07 2.42 2.72 2.42 2.11 2.73 | 0/18 |
| 6 | HVSMLTLQGMRHRNSVA | QMTTREN | QQYDRLPLS | 1.81 1.21 2.53 2.34 2.23 1.50 | 2/18 (1.80) |
| 7 | TLGYNTMVESIKKNNVA | EMSTRVN | QQYVRLPLA | -0.01 -0.22 0.15 -0.32 -0.37 -0.33 | 1/18 (4.17) |
| 8 | HMSMLTLQGMRHMNSVA | QMTTREN | QQYDRLPLA | 1.03 0.81 1.54 1.07 1.30 1.59 | 1/18 (2.26) |
| 9 | KLSFLSEMEHVNRNSVA | ELVTRMS | QQYNRLPLS | 0.47 0.41 0.21 0.43 0.14 0.45 | 2/18 (2.02) |
| 10 | MVTQMAMTGMMNKRSVA | NAETREY | QQYHRLPLI | n.d. n.d. 0.75 n.d. 0.82 0.78 | 0/18 |
| 11 | KLYDMAAVTMQNIRNVA | DNSTRED | QQYHRLPLS | 0.97 0.60 1.51 0.82 0.94 0.97 | 0/18 |
| 12 | MISQVMNTLTREGNNVA | DLEERER | QQYFRLPLS | n.d. n.d. 0.93 1.72 1.70 n.d. | 0/18 |
| 13 | MIYGAERELGLARNSIA | DNVTRYN | QQYERLPLS | 2.33 2.66 2.23 2.42 3.06 2.72 | 0/18 |
| 14 | MVTQVAMQGMTNKRSIA | NAETRET | QQYHRLPLI | 0.35 -0.19 -0.56 -0.04 0.05 0.21 | 0/18 |
| 15 | MISQLFNMGQFAINSVA | QASTRNE | QQYDRLPLI | 1.71 1.39 1.57 1.61 1.50 2.06 | 2/18 (2.74) |
| 16 | HMSMLTLGGLRNRNSVA | QMTTREN | QQYDRLPLA | 0.62 0.50 0.73 0.75 0.66 0.78 | 0/18 |
| 17 | MLSQMWGIGMKAKNSVA | QANMRFN | QQYDRLPLI | 1.25 1.63 0.62 1.55 1.20 1.33 | 1/18 (2.53) |
| 18 | KLYEMSYELSGKTHSVA | DNSTRGD | QQYFRLPLE | 0.60 0.66 1.09 0.34 0.53 0.72 | 0/18 |
| 19 | TIGQTLMYGMRNRSNVA | EVSERLN | QQYDRLPLL | 2.44 n.d. n.d. n.d. 2.91 n.d. | 0/18 |
| 20 | MMSQVYGLGQRHRNNVA | QTSMREN | QQYDRLPLI | 1.27 1.13 1.70 1.03 2.44 1.10 | 0/18 |
| 21 | TIQMFMDNLYHNRNNVA | DTSTLGD | QSYDRLPLS | 1.61 0.76 1.09 0.91 1.56 1.66 | 2/18 (2.91) |
| 22 | MIHESMGLMSHKQSSIA | DNSTRED | QQYDRLPLS | n.d. n.d. n.d. n.d. n.d. n.d. | 1/18 (2.54) |
| 23 | IVSQLMLWGMHAKNSIA | EAETRTN | QQYERLPLF | 0.69 1.54 0.59 0.80 0.60 n.d. | 0/18 |
| 24 | TIGQTLMYGKRNKNNVA | EVSERLN | QQYDRLPLL | 1.10 1.25 0.84 1.13 1.07 1.12 | 1/18 (3.05) |
| 25 | KITATMRFEQKESNNIA | EVTTRSK | QQYFRLPLS | 0.98 0.82 0.44 0.68 0.84 0.80 | 1/18 (2.30) |
| 26 | MISNVMNSLTHTGNNVA | DLQERED | QQYFRLPLS | 0.61 0.50 0.38 0.59 0.38 0.58 | 0/18 |
| 27 | MISQLYNMGQFAINSVA | QASTRNE | QQYDRLPLT | 1.21 0.86 0.54 0.57 0.90 0.88 | 0/18 |
| 28 | HMSAITYGGMRQRNSVA | QMTTREN | QQYDHLPLS | 1.61 1.74 1.28 1.67 1.45 1.79 | 2/18 (3.03) |
| 29 | TISAVMNHMTKNKMNVA | NMDMRED | QQYDRLPLS | 0.60 0.48 0.05 -0.15 0.17 0.18 | 0/18 |
| 30 | KLALVTGTEKVIGNNVA | EMETRER | QQYNRLPLA | 1.01 0.53 0.21 0.30 0.27 0.74 | 1/18 (2.25) |
| 31 | HITYGMYVSGRHTSNIA | QAETRAK | QQYDRLPLM | 0.77 0.73 0.42 0.58 0.61 0.95 | 1/18 (3.34) |
| 32 | HITYGMMVAGRHSSSIA | QAETRAK | QQYDRLPLS | 0.80 0.95 0.35 0.80 0.65 0.89 | 0/18 |
| 33 | MVSQLMLWGHMAKNSIA | EAQTRLN | QQYDRLPLF | 1.14 0.74 0.98 1.15 0.97 0.82 | 0/18 |
| 34 | KLSMLMDTTQKNHNSVA | HVQTRQD | QQYNHLPLS | 0.78 0.56 0.99 0.42 0.72 0.43 | 0/18 |
| 35 | KLSMITGHMQTTKNNVA | EMETREN | QQYNRLPLA | 0.78 0.60 0.65 0.37 0.58 0.70 | 2/18 (2.75) |
| 36 | KLLQNTGVGLRWANNVA | HMSTRED | QQYHRLPFV | 1.01 0.86 0.76 0.57 0.84 0.82 | 1/18 (4.75) |
| 37 | IVSQLMLWGMHAKNSIA | EAETRIN | QQYHHLPLI | 1.05 0.67 0.57 0.61 0.16 1.63 | 0/18 |
| 38 | KISQMQRVGSTHGNSIA | EEQTRAN | QQYHRLPLS | 0.57 0.38 0.70 0.51 0.42 0.60 | 1/18 (1.78) |
| 39 | HMSMITLQGMRHRNSVA | QMTTRVN | QQYDRLPLS | 1.99 1.51 1.02 0.85 2.27 1.99 | 2/18 (2.77) |
| 40 | TIGQTLMMGMRNRSNVA | EVSQRLN | QQYDRLPLL | 1.48 1.70 2.28 2.04 3.04 3.06 | 0/18 |
| 41 | TISQMSTMFSQSINNVA | EVSTRLN | QQYDRLPLM | 0.91 -0.01 0.76 0.02 0.27 1.63 | 0/18 |
| 42 | MVSQLMLWGLHAKNSIA | EAQTRVN | QQYDRLPLF | 1.00 1.24 n.d. n.d. n.d. 1.30 | 0/18 |
| 43 | MISQLGNMGQFAINSVA | QASLRND | QQYDRLPLV | 1.49 1.51 1.15 1.24 1.27 1.35 | 3/18 (3.29) |
| 44 | MISQLYNMGQFAINSVA | QASVRNA | QQYDRLPLI | 0.81 2.16 1.03 0.75 0.86 0.97 | 0/18 |
| 45 | IVSQLMLWGMKARNSIA | EAVTRLN | QQYDRLPLF | n.d. n.d. n.d. n.d. n.d. n.d. | 1/18 (2.19) |
| 46 | MVNQIMDHLSKNTNSVA | ETVTREE | QQYDRLPLS | 1.51 1.72 1.18 0.94 1.21 1.23 | 0/18 |
| 47 | KLSMVTGHMSVSKNNVA | EMVTRVN | QQYARLPLS | 0.49 0.89 n.d. n.d. 1.62 n.d. | 0/18 |
| 48 | SISQFMKSLSAHINNVA | DMTNREN | QQYDRLPLS | n.d. n.d. n.d. 1.71 n.d. 1.06 | 0/18 |

A sequence measured in both rounds can read differently, since the two assays cover different ranges. In the paper, a design with two or fewer of six values counts as a poor binder.